Experimental findings from ChEMBL document CHEMBL1154599 (J Med Chem, 2009) are described below.

The species named for this assay is Rattus norvegicus. Description: Selectivity index, ratio of IC50 for rat MAO-A to IC50 for rat MAO-B. In a few lines: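 Ratio of IC50 values from rat brain mitochondrial radioenzymatic assays: MAO-A with [14C]5-HT 5 μM, 30 min, and MAO-B with [14C]PEA 0.5 μM, 10 min. Both after 30 min preincubation with compound at 37 °C.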

In the case of `CNCc1cc(=O)oc2cc(OCc3cccc(F)c3)ccc12`, the Ratio IC50 worked out at 750.
